## Melting point values, as collected for the OPERA models

From the experimental data distributed with OPERA 2.9.

The melting point is given in degrees Celsius.
Cells with "n/a" have no entry in this list.

compound | name | mp (°C)
COc1ccc(-c2csc(N)n2)cc1F | 4-(3-fluoro-4-methoxyphenyl)-1,3-thiazol-2-amine | 186
CCOc1ccc(N)cc1Cl | 3-Chloro-4-ethoxyaniline | 64
COc1ccc(Nc2ccccc2)cc1 | N-Phenyl-p-anisidine | 105
C=CC[N+]1(CCC(C)CCCC(C)C)CCCCC1.[Br-] (stereo not given) | Piproctanyl bromide | 75
CCOc1ccc2ccccc2c1CO | (2-ethoxy-1-naphthyl)methanol | 50
Cc1c(C#N)sc(N)c1C#N | 5-Amino-3-methyl-2,4-thiophenedicarbonitrile | 225.1
NS(=O)(=O)c1cc(Cl)ccc1Cl | 2,5-dichlorobenzenesulfonamide | 180
C=CCN(CC=C)c1cc(NC(C)=O)c(N=Nc2c(Br)cc([N+](=O)[O-])cc2[N+](=O)[O-])cc1OC | n/a | 176.5
NNc1ncnc2sc(-c3ccccc3)cc12 | 4-hydrazino-6-phenylthieno[2,3-d]pyrimidine | 264
CCCCCCCCCCCCCCCCCC(=O)NCCC[N+](C)(C)CC(=O)OCCCCCCCCCCCCCC.[Cl-] | n/a | 25.3
C=C(OC(C)=O)c1ccccc1 | 1-Phenylethenyl acetate | -20.07
O=C(NC(Cc1c[nH]c2ccccc12)C(=O)O)c1ccc(F)cc1 (stereo not given) | N-(4-Fluorobenzoyl)tryptophan | 96.5
O=Cc1cc(Br)c(OCc2ccccc2)c(Br)c1 | 4-Benzyloxy-3,5-dibromo-benzaldehyde | 79
Clc1cncc(OCc2ccccc2)n1 | 2-(benzyloxy)-6-chloropyrazine | 48
S=c1[nH]nc(NC2CCCCC2)s1 | 5-cyclohexylamino-[1,3,4]thiadiazole-2-thiol | 145
COC(=O)c1cc(C)nc(SC)n1 | methyl 6-methyl-2-(methylthio)pyrimidine-4-carboxylate | 117
O=C(CCl)NNC(=O)c1cccc(Cl)c1 | 3-Chloro-N'-(chloroacetyl)benzohydrazide | 156
CCCCCCCC/C=C\CCCCCCCCNCCCN | N-Oleyl-1,3-propanediamine | 3
C=S(=C)(C)O[C@@H]1CC(C(=O)OCC)=C[C@H]2OC(C)(C)O[C@H]21 | n/a | 102
Cc1c(C(=O)O)cnn1C | 1,5-Dimethyl-1H-pyrazole-4-carboxylic acid | 170
Nc1cccc(N2CCCC2=O)c1 | 1-(3-aminophenyl)pyrrolidin-2-one | 107
CC(=O)c1ccc(OCCCC(=O)O)cc1 | 4-(4-Acetyl-phenoxy)-butyric acid | 137
O=C(c1c[nH]c2ccccc12)C(Cl)c1ccccc1 (stereo not given) | 2-Chloro-1-(1H-indol-3-yl)-2-phenylethan-1-one | 125
C=CCCCCCCCCC(C)CCCCCCCC (stereo not given) | 1-Decene, dimer | -73
Cc1n[nH]c(=S)n1C | 3H-1,2,4-Triazole-3-thione, 2,4-dihydro-4,5-dimethyl- | 114
O=c1nc[nH]c2ccc(Br)cc12 | 6-bromoquinazolin-4-ol | 269
O=C(c1ccc(O)cc1)c1cccc(C(=O)c2ccc(O)cc2)c1 | benzene-1,3-diylbis[(4-hydroxyphenyl)methanone] | 215.5
COc1ccc(OCCC(=O)O)cc1 | 3-(4-methoxyphenoxy)propanoic acid | 105
O=C(O)CC1Sc2ccc(C(F)(F)F)cc2NC1=O (stereo not given) | n/a | 237
COc1ccc(-n2c(C)cc(C=O)c2C)cc1 | 1-(4-Methoxyphenyl)-2,5-dimethyl-1H-pyrrole-3-carbaldehyde | 134
O=C(O)c1ccccc1Oc1cccc(C(F)(F)F)c1 | 2-[3-(Trifluoromethyl)phenoxy]benzoic acid | 116
CCCCCCCCCCCC(=O)N[C@@H](CCC(=O)O)C(=O)[O-].[Na+] | L-Glutamic acid, N-(1-oxododecyl)-, sodium salt (1:1) | 220
CN1CCN(c2ccc(C(=O)O)cc2[N+](=O)[O-])CC1 | 4-(4-methylpiperazin-1-yl)-3-nitrobenzoic acid | 161
Cn1sccc1=O | 2-Methyl-3(2H)-isothiazolone | 47.5
CCC(C)n1ncn(-c2ccc(N3CCN(c4ccc(OC)cc4)CC3)cc2)c1=O (stereo not given) | n/a | 197.8
CCCCCCCCCCCCCCCCCC(=O)NCCO | N-(2-Hydroxyethyl)octadecanamide | 88.8
CC1(c2ccc([N+](=O)[O-])cc2)NC(=O)NC1=O (stereo not given) | 5-Methyl-5-(4-nitro-phenyl)-imidazolidine-2,4-dione | 236
COc1cccc(OC)c1OCC(=O)O | (2,6-Dimethoxy-phenoxy)-acetic acid | 80.5
NC(=S)NC1CC1 | N-cyclopropylthiourea | 139

Excerpt, the final 4 entries:

{"smiles": "CCCCCCCCCCCCCCCCCC(=O)NCCO", "name": "N-(2-Hydroxyethyl)octadecanamide", "mp (°C)": "88.8"}
{"smiles": "CC1(c2ccc([N+](=O)[O-])cc2)NC(=O)NC1=O", "stereo": "stereo not given", "name": "5-Methyl-5-(4-nitro-phenyl)-imidazolidine-2,4-dione", "mp (°C)": "236"}
{"smiles": "COc1cccc(OC)c1OCC(=O)O", "name": "(2,6-Dimethoxy-phenoxy)-acetic acid", "mp (°C)": "80.5"}
{"smiles": "NC(=S)NC1CC1", "name": "N-cyclopropylthiourea", "mp (°C)": "139"}

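The numbers are reported measurements, compiled and curated for the OPERA QSAR suite. A listed value is a point estimate from one report or more. Conditions of the individual experiments are not part of the data. Where a salt, mixture or single isomer is drawn, the source does not say that exactly this form was tested. Unmarked limits or estimates from the upstream databases cannot be ruled out.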